Measurements: ChEMBL document CHEMBL1152669, “New R/S-3,4-dihydro-2,2-dimethyl-2H-1-benzopyrans as K(ATP) channel openers: modulation of the 4-position” (Bioorg Med Chem, 2009)

Species on record: Rattus norvegicus
Test: Channel opening activity at KATP channel in Wistar rat pancreatic islets assessed as glucose-induced residual insulin secretion at 1 uM after 90 mins by radioimmunology
Procedure, shortened: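 Islets from adult fed rats, groups of 10, preincubated 30 min at 37 °C in bicarbonate salt medium with 2.8 mM glucose, 0.5% dialyzed albumin, O2/CO2 gassed. Then incubated 90 min at 37 °C with 16.7 mM glucose plus drug. Insulin by radioimmunoassay against rat insulin standard; expressed as % of drug-free 16.7 mM glucose control; mean ± SEM (n).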

CC(N/C(=N\C#N)Nc1ccncc1)C(C)(C)C (racemic) [PINACIDIL ANHYDROUS]
Activity: 97.7%
